{"source": "paper PMC5577105", "about": "“A New Chimeric Natriuretic Peptide, CNAAC, for the Treatment of Left Ventricular Dysfunction after Myocardial Infarction” (Scientific Reports, 2017)", "assay": "Stability (degradation) of NPs in the circulation of rats after bolus injection", "conditions": "rat in vivo, i.v. bolus 40 nmol/kg via jugular vein, HPLC / tandem MS peak area", "data": [{"substance": "C-type natriuretic peptide [CNP]", "values": [{"measurement": "NP degraded in the first 5 min", "setting": "carotid blood at 5 min, mean, n = 5 (Fig. 2a)", "value": 52.2, "unit": "%"}, {"measurement": "NP remaining at 10 min", "setting": "carotid blood at 10 min, mean, n = 5 (Fig. 2b)", "value": 19.1, "unit": "%"}, {"measurement": "NP remaining at 20 min", "setting": "carotid blood at 20 min, mean, n = 5 (Fig. 2c)", "value": "Less than 10%"}, {"measurement": "NP remaining at 30 min", "setting": "carotid blood at 30 min, n = 5 (Fig. 2d)", "value": "completely degraded"}]}]}
